Molecular target: Bovine PDE6 (Bos taurus, UniProt P11541+P23439)
Assay: PDE6 enzyme inhibition, IC50 determination
Format: biochemical
Details: read-out: PDE6 IC50

Amino acid sequences for entries named in this document (tags omitted). Residues count along the entry.
UniProt P11541, 2-856 limits assumed: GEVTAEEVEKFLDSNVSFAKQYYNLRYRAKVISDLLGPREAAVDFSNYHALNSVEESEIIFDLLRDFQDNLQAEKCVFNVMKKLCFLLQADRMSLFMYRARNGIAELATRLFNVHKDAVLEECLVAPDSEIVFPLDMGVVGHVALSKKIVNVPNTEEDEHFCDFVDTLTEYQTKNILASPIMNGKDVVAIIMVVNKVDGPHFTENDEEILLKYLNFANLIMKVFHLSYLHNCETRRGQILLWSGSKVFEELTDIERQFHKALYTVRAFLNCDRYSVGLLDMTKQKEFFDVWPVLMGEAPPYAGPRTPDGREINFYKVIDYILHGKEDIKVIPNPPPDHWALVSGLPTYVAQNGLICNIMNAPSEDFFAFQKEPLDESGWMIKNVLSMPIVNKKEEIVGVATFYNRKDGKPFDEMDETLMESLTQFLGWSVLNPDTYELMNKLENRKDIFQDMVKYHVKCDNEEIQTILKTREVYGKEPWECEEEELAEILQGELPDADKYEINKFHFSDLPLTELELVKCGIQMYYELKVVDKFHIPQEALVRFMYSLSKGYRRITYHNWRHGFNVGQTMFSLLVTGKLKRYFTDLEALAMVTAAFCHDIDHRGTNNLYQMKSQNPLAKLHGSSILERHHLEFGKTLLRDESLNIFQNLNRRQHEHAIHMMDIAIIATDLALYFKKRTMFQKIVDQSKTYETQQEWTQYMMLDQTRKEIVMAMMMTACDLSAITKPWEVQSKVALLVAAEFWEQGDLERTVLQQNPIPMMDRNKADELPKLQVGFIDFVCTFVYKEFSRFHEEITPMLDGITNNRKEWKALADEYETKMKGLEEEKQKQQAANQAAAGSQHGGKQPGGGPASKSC
UniProt P23439, 2-850 limits assumed: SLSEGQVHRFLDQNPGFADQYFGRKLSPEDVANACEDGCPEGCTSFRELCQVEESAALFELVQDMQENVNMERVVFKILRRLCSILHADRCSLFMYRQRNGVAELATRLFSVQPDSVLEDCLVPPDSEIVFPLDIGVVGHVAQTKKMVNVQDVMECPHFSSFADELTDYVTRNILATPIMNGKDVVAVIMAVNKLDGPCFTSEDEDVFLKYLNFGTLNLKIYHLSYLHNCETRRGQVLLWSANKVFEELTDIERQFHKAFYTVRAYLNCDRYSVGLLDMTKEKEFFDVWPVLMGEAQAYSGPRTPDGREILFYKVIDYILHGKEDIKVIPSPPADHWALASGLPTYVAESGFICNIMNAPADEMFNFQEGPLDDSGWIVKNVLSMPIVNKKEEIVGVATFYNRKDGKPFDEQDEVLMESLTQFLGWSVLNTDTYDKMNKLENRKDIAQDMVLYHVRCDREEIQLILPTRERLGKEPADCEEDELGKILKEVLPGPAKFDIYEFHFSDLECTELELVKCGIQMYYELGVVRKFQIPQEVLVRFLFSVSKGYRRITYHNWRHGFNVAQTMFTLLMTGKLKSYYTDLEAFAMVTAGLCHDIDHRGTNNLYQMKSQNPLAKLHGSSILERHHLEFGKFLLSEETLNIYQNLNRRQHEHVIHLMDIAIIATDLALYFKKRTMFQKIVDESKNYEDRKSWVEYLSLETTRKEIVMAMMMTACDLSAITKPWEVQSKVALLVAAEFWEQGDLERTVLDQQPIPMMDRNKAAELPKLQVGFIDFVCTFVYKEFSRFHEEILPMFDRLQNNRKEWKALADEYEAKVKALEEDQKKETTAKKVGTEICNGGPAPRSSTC
UniProt P04972, whole entry partner: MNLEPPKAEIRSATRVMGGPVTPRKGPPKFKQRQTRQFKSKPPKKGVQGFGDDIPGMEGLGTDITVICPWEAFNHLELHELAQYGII

With `CN1CC(=O)N2C(Cc3c([nH]c4ccccc34)C2c2ccc3c(c2)OCO3)C1=O` (stereo not shown) the IC50 was 937 nM.

From patent publication US6451807B1, “Methods of treating sexual dysfunction in an individual suffering from a retinal disease, class 1 congestive heart failure, or myocardial infarction using a PDE5 inhibitor” (Lilly Icos, LLC., priority 1999, dated 2002)
